The source of these data is patent US20050227337A1, “Method for producing ascorbic acid intermediates” (priority 1998, published 2005).

Amino acid sequences for entries named in this document (tags omitted).
UniProt P06632, whole entry F22Y/A272G: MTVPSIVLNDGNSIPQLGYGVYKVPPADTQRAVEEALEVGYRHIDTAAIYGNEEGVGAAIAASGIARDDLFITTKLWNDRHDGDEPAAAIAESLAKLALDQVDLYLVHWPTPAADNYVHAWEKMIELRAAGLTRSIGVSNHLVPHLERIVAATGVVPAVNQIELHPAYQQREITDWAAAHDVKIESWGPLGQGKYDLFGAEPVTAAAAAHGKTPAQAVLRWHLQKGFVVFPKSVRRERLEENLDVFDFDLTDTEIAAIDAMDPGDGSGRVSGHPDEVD

Assay type in all cases: biochemical
The target in assay [1] is T1, Reductase A F22Y/A272G (Corynebacterium sp., UniProt P06632, A272G/F22Y).
T1 construct: made in house; host or cells: E. coli
The conditions noted are these: pH 7.0, 30° C.

The next assay deals with Reductase (Corynebacterium sp., UniProt P06632, A272G/F22Y). The note with it: for Km: read-out: Km for DKG.
For assay [2], the target named is T1, Reductase A F22Y/A272G. The note with it: for % Activity, 0 min / % Activity, 5 min / % Activity, 10 min: 20 mM, 45.4° C., 25 mM MOPS pH 7, all % +/- 10%; for Half-life of reductase: 25 mM MOPS pH 7.0.
Where [3] appears, read: salt concentrations increased to 250 mM.

Like-named read-outs stand apart in the source and are kept apart here.

Turning to `[Cl-].[Na+]` [NaCl, sodium chloride], the reductase activity entry at Reductase A F22Y/A272G [1] (setting [3]) was “drops”. In addition, the reductase activity entry on Reductase A F22Y/A272G [1] (up to 100 mM salt) is “stays the same or slightly increases”. The reductase rate entry on Reductase (NaCl 100 mM or greater, 250 uM NADPH, 10-20 mM DKG) is “decreased”. Also, the “mode of inhibition of reductase” value at Reductase (NaCl versus cofactor NADPH) is on record as “competitive”. In addition, on Reductase A F22Y/A272G [2], the “% Activity, 0 min” value amounted to 100%; the “% Activity, 5 min” value is on record as 72%; the “% Activity, 10 min” value amounted to 59%. On Reductase A F22Y/A272G [2] (0.5 M, pH 7, 45° C.), the “% Remaining activity after 10 min incubation” value is reported as 100%.
For `O=S(=O)([O-])[O-].[K+].[K+]` [K2SO4], the “% Remaining activity after 10 min incubation” value at Reductase A F22Y/A272G [2] (100 mM, pH 7, 45° C.) is 90-100%; at Reductase A F22Y/A272G [2] (0.5 M, pH 7, 45° C.), 100%.
Regarding `[I-].[Na+]` [NaI], the “% Remaining activity after 12 min incubation” value at Reductase A F22Y/A272G [2] (0.1 M, pH 7, 45° C.) is 80-85%.
For `[Cl-].[K+]` [KCl], the reductase activity result was “drops” on Reductase A F22Y/A272G [1] (setting [3]) and “stays the same or slightly increases” on Reductase A F22Y/A272G [1] (up to 100 mM salt). Also, the “% Remaining activity after 10 min incubation” value at Reductase A F22Y/A272G [2] (0.5 M, pH 7, 45° C.) worked out at 100%.
Turning to `O=C(O)C(=O)[C@@H](O)[C@H](O)[C@@H](O)CO` [2-KLG, 2-keto-L-gulonic acid], the “mode of inhibition of reductase” value on Reductase (2-KLG 0 to 150 mM versus DKG, pH 7) was “uncompetitive inhibition”. Also, at Reductase (KLG concentration increased from 0 to 150 mM, pH 7), the “decrease of reaction rate” value was 2-4 fold. On Reductase A F22Y/A272G [2], the “% Activity, 0 min” value is on record as 100%; the “% Activity, 5 min” value came out at 51%; the “% Activity, 10 min” value is given as 29%. The “reductase activity remaining after incubation” value at Reductase A F22Y/A272G [2] (500 mM 2-KLG, 50 mM bis-tris pH 7, 45° C.) was “does not significantly lose any activity”. Further, the stabilization of reductase entry on Reductase A F22Y/A272G [2] (intermediate 2-KLG concentrations (0-500 mM), pH 7, 45° C.) was “partial stabilization”.
K2PO4: the “% Remaining activity after 10 min incubation” value on Reductase A F22Y/A272G [2] (200 mM, pH 7, 45° C.) is listed as 65-75%.
A word on the Km: it is the substrate concentration at which the rate is half of its maximum. Turning to `O=C(O)C(=O)[C@@H](O)[C@H](O)C(=O)CO` [DKG, 2,5-diketo-D-gluconate], the Km on Reductase (150 mM 2-KLG, pH 7) was 2 to 4 mM; at Reductase ([NaCl] 0 mM, NADPH at least 3 times above its Km) it was 6 to 14 mM; at Reductase ([NaCl] 100 mM, NADPH at least 3 times above its Km), 6 to 14 mM; at Reductase ([NaCl] 200 mM, NADPH at least 3 times above its Km) it was 6 to 14 mM; on Reductase ([NaCl] 400 mM, NADPH at least 3 times above its Km), 6 to 14 mM; on Reductase (pH 7 conditions, no 2-KLG) it was 10 to 12 mM.
In the case of `[Ca+2].[Cl-].[Cl-]` [CaCl2], on Reductase A F22Y/A272G [1] (concentrations of 20 mM or more), the reductase activity result is on record as “drops”.
As to `NC(=O)C1=CN([C@@H]2O[C@H](COP(=O)(O)OP(=O)(O)OC[C@H]3O[C@@H](n4cnc5c(N)ncnc54)[C@H](OP(=O)(O)O)[C@@H]3O)[C@@H](O)[C@H]2O)C=CC1` [NADPH], the “increase of Km for NADPH over the Km determined without NaCl” value on Reductase (200 mM NaCl, pH 7 bis-tris, approx. 1.5 mg/ml DKG, 30° C.) is listed as 10-40 fold. Moreover, the “% Remaining activity after 10 min incubation” value on Reductase A F22Y/A272G [2] (100 mM, pH 7, 45° C.) is 80-90%.
Turning to `O=C(O)C(=O)[C@@H](O)[C@H](O)[C@@H](O)CO.[Na]` [NaKLG], the stabilization of reductase entry at Reductase A F22Y/A272G [2] (0-400 mM NaKLG, 46.6-46.9° C., concentration dependent) was “clearly stabilizes”. Besides, the Half-life of reductase at Reductase A F22Y/A272G [2] (100 mM NaKLG, 46.6-46.9° C.) is 5.5 ± 1 min; at Reductase A F22Y/A272G [2] (200 mM NaKLG, 46.6-46.9° C.), 7.5 ± 1.5 min; at Reductase A F22Y/A272G [2] (300 mM NaKLG, 46.6-46.9° C.), 10 ± 3 min; at Reductase A F22Y/A272G [2] (400 mM NaKLG, 46.6-46.9° C.), 18.5 ± 3 min.
